Bioassay records deposited in PubChem by National Center for Advancing Translational Sciences (NCATS).
A549 viability: A549 cytotoxicity, counter-screen for Nrf2 inhibitors. AID 504648. A549 ARE-Fluc cells, CellTiter-Fluor viability, 18-24 h. 390,000 tested, 0.16% active. Potency, µM (top dose mostly 46 µM), for inactives: at the top dose activity change, negative = cytotoxicity, most hits filed as inhibitors; note: potency is the fitted concentration of half-maximal effect; % is set by controls: 0 for no effect and ±100 for the full control effect
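Cytotoxicity counterscreen: CellTiter-Fluor fluorescence was measured in A549 ARE_Fluc cells after 18-24 h of compound exposure in a concentration series. The subsequent BugLite luminescent read reports ARE-luciferase activity.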
miR-21 reporter: miR-21 reporter, rising signal | AID 2288 | HeLa miR-21 FLuc reporter, luciferase, 48 h | 340,000 tested, under 10 active | Potency, µM (doses to about 38.3 µM), for inactives: at the top dose reporter change, positive = more light; active = well fitted rising curve with a large enough effect; inconclusive = small, poorly fitted or top-dose-only effect; inactive = no such curve, though single readings can be large or run the other way;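 note: % of control where 0% means no effect; miR-21 action dims this reporter so a rising signal means less miR-21 action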
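Using DMEM plus 10% FBS, HeLa miR-21-FLuc cells are incubated with test compounds (final up to about 40uM) for 48 hours; firefly luciferase signal is then imaged following reagent-mediated lysis.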
Mito fusion act: inhibitors of mitochondrial division or activators of mitochondrial fusion. S. cerevisiae fusion-defective mutant growth rescue, CellTiterGlo 48 h. Potency, µM (highest dose often 46.1 µM), inactives show at the highest dose growth rescue (activation), most hits filed as activators. 320,000 tested, 0.23% active; note: potency is the fitted concentration of half-maximal effect; % of control where 0% means no effect; nearly all actives have a fitted effect of over 45% in size
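S. cerevisiae fusion-defective temperature-sensitive mutants (e.g. fzo1-1, mgm1-5) grown 48 h at 37C in YPEG (ethanol/glycerol non-fermentable) medium with 23 nl compound per well; growth rescue read as CellTiterGlo luminescence.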
Nrf2 inh: Nrf2 pathway inhibition | 360,000 tested, 2.1% active | A549 ARE-Fluc reporter, luciferase luminescence, 18-24 h | Potency, µM (top dose mostly 46 µM), without a hit: at the highest dose activity change, negative = inhibition, most hits filed as inhibitors; note: potency is the fitted concentration of half-maximal effect; % is set by controls: 0 for no effect and ±100 for the full control effect; nearly all actives have a fitted effect of over 60% in size
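Reporter: ARE-Fluc in A549. Exposure: 18-24 h, 37 °C, 5% CO2, 5% FBS OPTI-MEM. Readouts: fluorescent cytotoxicity (CellTiter-Fluor), then luminescent Nrf2 signal after BugLite.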
Nrf2 ARE act: activates Nrf2 signaling. AREc32 ARE-luciferase reporter (MCF7-derived line), luminescence, 24 h. Potency, µM (doses to about 46.1 µM), for inactives: top-dose activation, usual class: activators. 410,000 tested, 0.31% active; note: potency is the fitted concentration of half-maximal effect; % of control where 0% means no effect; nearly all actives have a fitted effect of over 65% in size
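ARE activation measured as luciferase luminescence (Steady-Glo, 30 min RT) in AREc32_Fluc cells after 24 hr compound exposure at 37 deg C, 5% CO2; cells seeded overnight at 1000/well in OPTI-MEM, 5% FBS.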
Numbers without * were called inactive; u = inconclusive; x = not tested or not shown; ! = not confirmed by another sample; [ ] = another dose, or the depositor's remark. The list is not random: actives were taken first. Their share in the collection is about 2.3%. Unless noted, calls come from the whole dose curve; as a rule, active = well fitted curve in the direction sought with a large enough effect; inconclusive = small, poorly fitted or top-dose-only effect, or another doubt; inactive = no such curve, though single readings can be large; an effect the other way counts as inactive or inconclusive.

SMILES | A549 viability | miR-21 reporter | Mito fusion act | Nrf2 inh | Nrf2 ARE act
COc1cccc(NC(=O)c2ccccc2Oc2ccccc2)c1 | 1% | 2% | 6% | -25% | 1%
OCC1O[C@H]([S-])[C@H](O)[C@@H](O)[C@@H]1O.[Au+] (stereo partly specified) | x | x | 4% | x | x
C=CCNS(=O)(=O)c1nc(C)c(Cl)c(C)c1C#N | -8% | -6% | 1% | -7% | 11µM*
Cc1ccc(NC(=O)Cn2nnc(C(=O)NCCc3ccccc3)c2N)cc1 | 0% | -40% | x | -11%[9.27 µM] | 5%
COc1ccccc1NC(=O)C(C)OC(=O)/C=C/c1ccc2ccccc2n1 (stereo unspecified) | 2% | x | -1% | 2% | 18µM*
CN(CC(=O)Nc1ccc(C#N)cc1)Cc1ccc(Cl)cc1 | 9% | -1% | 5% | u | 0%
N#Cc1ccc(NC(=O)Nc2ccc(Cl)cc2)cc1 | u | 15% | -14% | 18µM* | 2%
Cc1ccc(-n2ncc(C(=O)N3CCC(c4ccccc4)C3)c2C2CCN(C(=O)OC(C)(C)C)CC2)cc1 (stereo unspecified) | -22% | -5% | x | u | -1%
CC(C)COc1ccc(C(=O)Nc2sc3c(c2C(=O)O)CC(C)(C)OC3)cc1 | u | 22% | 21% | 5.8µM* | 0%
COc1ccc(C2c3c(n(CCc4ccccc4)cnc3=N)Oc3ccc4ccccc4c32)cc1OC (stereo unspecified) | 0% | x | x | 2% | x
COc1cccc(NC(=O)c2cc3ccccc3o/c2=N\O)c1 | -2% | 12% | -11% | u | 0%
O=C(Nc1ccccc1Cl)c1cc2ccccc2o/c1=N\O | -5% | -44% | 1% | u | 1.3µM*
CC(=O)Oc1ccccc1C1=NN(C(=O)/C=C/c2ccccc2)C(c2ccccc2)C1 (stereo unspecified) | -9% | -2% | 16µM* | u | 6%
CCC(C)Sc1ccc([C@H]2N[C@@](CC(C)C)(C(=O)OC)[C@H]3C(=O)N(CC)C(=O)[C@@H]23)cc1 (stereo partly specified) | -2% | x | 8% | -14% | -1%
CCN1C(=O)[C@H]2[C@@H](c3ccc(SC4CCCCC4)cc3)N[C@@](CC(C)C)(C(=O)OC)[C@H]2C1=O | -2% | x | -3% | 21µM* | -1%
O=C(Nc1ccccc1Cl)N1CCN(c2ccc3nnc(-c4ccccc4)n3n2)CC1 | -5% | 0% | 2% | u | 3%
O=C(Nc1ccc(Cl)cc1)N1CCN(c2ccc3nnc(-c4ccc(F)cc4)n3n2)CC1 | u | -5% | 1% | 21µM* | 3%
Cc1ccc(S(=O)(=O)N2C[C@@H]3[C@H]4CC[C@H](C4)[C@@H]3[C@@H](C)[C@@H]2c2cn(Cc3ccccc3)c3ncccc23)cc1 | 0% | x | x | 21µM* | 3%
Cc1ccc(S(=O)(=O)N2C[C@@H]3[C@H]4CC[C@H](C4)[C@@H]3[C@@H](C)[C@H]2c2ccn(Cc3ccccc3)c2)cc1 | 11% | x | x | u | 6%
CN1CCN(c2ccc(-c3ccc4ccccc4n3)cc2)CC1 | 7% | u | 3% | 10µM* | -2%
c1ccc2nc(-c3ccc(N4CCOCC4)cc3)ccc2c1 | -3% | -35% | -8% | u | 0%
Oc1ccc(Cl)cc1C1C=C(c2ccc3c(c2)OCO3)NC(c2ccc(C(F)(F)F)cc2)N1 (stereo unspecified) | -1% | x | x | 16% | x
Cc1ccc(-c2nc3sc(C(N)=O)c(N)c3c3c2CCCC3)cc1 | -5% | 8% | u | u | -1%
CC(=O)c1sc2nc(-c3ccc(C)cc3)c3c(c2c1N)CCCC3 | u | -2% | 16µM* | u | 1%
CCOc1ccc(Nc2ncnc3c2c(-c2ccccc2)cn3-c2cccc(C)c2)cc1 | 23% | 1% | x | x | 0%

The listing continues.
SMILES | A549 viability | miR-21 reporter | Mito fusion act | Nrf2 inh | Nrf2 ARE act
Cc1ccc(-c2noc(CSc3nnc(C)n3-c3ccc(C)cc3)n2)cc1 | 3% | -5% | x | u | 2%
Cc1ccc(-c2noc(CSc3nnc(C)n3-c3ccc(C)c(C)c3)n2)cc1 | -12% | 6% | x | 16µM* | 5%
Clc1ccccc1-c1nnc(SCc2nc(-c3ccccc3)no2)n1-c1ccccc1 | -29% | u | x | 15µM* | -1%
Cc1ccc(-n2c(SCc3nc(-c4ccc(Cl)cc4)no3)nnc2-c2ccncc2)cc1 | -24% | 1% | x | 23µM* | 5%
Cc1ccc(O/C=C2/Nn3c(nnc3-c3cc(-c4ccccc4)n[nH]3)S2)cc1 | 1% | x | x | 2% | x
CCCCOc1ccc(Br)cc1/C(C)=N/NC1=NCCN1 | 12µM* | u | 2% | u | 5%
COc1cc(NC(=O)CN2C(=O)NC(c3ccccc3)(c3ccccc3)C2=O)c(C)cc1[N+](=O)[O-] | -17% | 3% | -2% | 29µM* | 6%
O=C(Nc1ccc(Cl)c(C(F)(F)F)c1)c1nc2ccccc2nc1N1CCCCC1 | 0% | 25% | x | x | 7%
O=C(c1ccc(N2CCN(C(=O)c3ccc(F)c(F)c3)CC2)cc1)c1cccc(F)c1 | -15% | -7% | -4% | 16µM* | 0%
CC(C)(C)OC(=O)NCCCCCc1cn([C@@H](CO)C(=O)NCCCCCCCCCCC(=O)N2CCN(C(=O)OC(C)(C)C)CC2)nn1 | u | x | -5% | 7.3µM* | -3%
CC(Sc1oc(-c2cccs2)nc1S(=O)(=O)c1ccccc1)c1ccccc1 (stereo unspecified) | -2% | -8% | x | 4%[9.27 µM] | 0%
CSc1ccc(C(=O)C2CCCN(C(=O)CCc3c(C)nn(C)c3C)C2)cc1 (stereo unspecified) | -17% | x | x | 9.2µM* | 0%
CC(=O)N1CC(C)Sc2ccc(S(=O)(=O)NCCc3ccc(C)cc3)cc21 (stereo unspecified) | -11% | 13% | 5% | 7.3µM* | 0%
CC(=O)N1CCSc2ccc(S(=O)(=O)NCCc3ccc(Cl)cc3)cc21 | -18% | 18% | -1% | 15µM* | 0%
CCCCCCn1c(SCC#N)nc2ccccc2c1=O | 4% | x | x | -12% | x
CN1C(C(=O)Nc2ncccn2)=C(O)c2ccccc2S1(=O)=O | 0% | -1% | 20% | 5% | -1%
CN1C(C(=O)Nc2ccccn2)=C(O)c2ccccc2S1(=O)=O | 1% | 5% | 16µM*! | 2% | 0%
CCCc1nn2c(=O)cc(COC(=O)c3ccc4c(c3)OCO4)nc2s1 | 3% | -2% | x | u | -1%
CC1(C)CC(=O)c2sc(NC(=O)c3ccccc3)nc2C1 | x | -45% | 14% | x | x
CC1(C)CC(=O)c2sc(NC(=O)c3cccs3)nc2C1 | -19% | 1% | 24% | 15µM* | 0%
CCCCOc1ccc(/C=C2/Sc3ccccc3C2=O)cc1 | 19% | 1% | 3% | u | 8%
CC(=O)Oc1cccc(/C=C2\Sc3ccccc3C2=O)c1 | 1% | 1% | -1% | 15% | 14µM*

Arranged by formula weight (rising): 5 of the compounds above.
SMILES | A549 viability | miR-21 reporter | Mito fusion act | Nrf2 inh | Nrf2 ARE act
CC(=O)Oc1cccc(/C=C2\Sc3ccccc3C2=O)c1 | 1% | 1% | -1% | 15% | 14µM*
CCCCOc1ccc(/C=C2/Sc3ccccc3C2=O)cc1 | 19% | 1% | 3% | u | 8%
CCCCOc1ccc(Br)cc1/C(C)=N/NC1=NCCN1 | 12µM* | u | 2% | u | 5%
Cc1ccc(-n2c(SCc3nc(-c4ccc(Cl)cc4)no3)nnc2-c2ccncc2)cc1 | -24% | 1% | x | 23µM* | 5%
CC(C)(C)OC(=O)NCCCCCc1cn([C@@H](CO)C(=O)NCCCCCCCCCCC(=O)N2CCN(C(=O)OC(C)(C)C)CC2)nn1 | u | x | -5% | 7.3µM* | -3%
